Earlier results in US12076400B2, “Methods of using a bispecific antigen-binding construct targeting HER2 in combination with CDK4/6 inhibitors for the treatment of breast cancer” (c/o Zymeworks BC Inc., priority 2019, dated 2024).

Protein sequences, listed by entry. Tags and fused reporters are not part of them.
UniProt P03372, whole entry: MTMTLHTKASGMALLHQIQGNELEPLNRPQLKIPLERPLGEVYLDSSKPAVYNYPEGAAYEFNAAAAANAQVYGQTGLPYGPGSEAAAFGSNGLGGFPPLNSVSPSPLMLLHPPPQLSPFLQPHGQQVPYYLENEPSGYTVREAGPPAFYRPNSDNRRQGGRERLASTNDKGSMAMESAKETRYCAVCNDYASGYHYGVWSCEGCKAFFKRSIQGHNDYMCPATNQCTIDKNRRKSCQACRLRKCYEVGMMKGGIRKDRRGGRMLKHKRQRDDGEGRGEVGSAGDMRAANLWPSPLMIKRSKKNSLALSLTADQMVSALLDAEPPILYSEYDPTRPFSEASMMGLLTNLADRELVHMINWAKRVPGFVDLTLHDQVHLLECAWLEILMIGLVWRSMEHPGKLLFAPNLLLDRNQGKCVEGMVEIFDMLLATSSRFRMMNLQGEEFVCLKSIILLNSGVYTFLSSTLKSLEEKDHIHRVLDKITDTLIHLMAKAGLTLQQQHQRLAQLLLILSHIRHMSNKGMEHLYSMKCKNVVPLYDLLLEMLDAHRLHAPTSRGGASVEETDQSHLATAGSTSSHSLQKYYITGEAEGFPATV

Key:
[1] = molecular target: T1, ER protein in human breast cancer cells (Homo sapiens, UniProt P03372)
T1 construct: endogenous in cells

estrogen receptor (ER) = estrogen receptor (ER) (Homo sapiens, UniProt P03372); details: competitive binding

## 7-alpha-[9-(4,4,5,5,5-penta fluoropentylsulphinyl) nonyl]estra-1,3,5-(10)-triene-3,17beta-diol [Fulvestrant]
[1]
  Effect on ER protein: downregulates the ER protein
Estrogen receptor (ER)
  Binding affinity to the ER: affinity comparable to that of estradiol
